## Ab-14 heavy chain CDR variants: yeast mating affinities

Antigen: PDVDLGDISGINAS, a 14-residue peptide of the SARS-CoV-2 spike HR2 region.

The variants keep the light chain, the linker and the frameworks of Ab-14 (scFv order VH, three GGGGS repeats, VL).
VH: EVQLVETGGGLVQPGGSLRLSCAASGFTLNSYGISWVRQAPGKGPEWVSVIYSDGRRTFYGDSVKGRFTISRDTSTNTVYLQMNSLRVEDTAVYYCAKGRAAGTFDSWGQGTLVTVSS
VL: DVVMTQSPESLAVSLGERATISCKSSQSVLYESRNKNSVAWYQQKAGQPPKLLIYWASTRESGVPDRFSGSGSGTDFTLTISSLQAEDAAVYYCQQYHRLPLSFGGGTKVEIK

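Phage display of a naive human antibody library on the peptide gave the parent. This is the validation round: designs drawn from the data on random variants, tested in the same kind of assay. Group labels follow the data file (Rand: our label for a block that the file lists under HC and that is probably the random mutants of the ten best first-round binders; En: ensemble of fine-tuned language models; HC: hill climbing; Gen: genetic algorithm; Gibbs: Gibbs sampling; a sequence that several methods proposed may carry one label only). Affinity was read by AlphaSeq, a pooled yeast mating assay with surface-displayed partners. Pairs that bind mate more often; barcode pairs of the diploids are counted by sequencing. The ratio of observed to expected reads was calibrated, replicate by replicate, on BCL2-family standards whose Kd was known from biolayer interferometry. Each pool was mated in six replicate cultures.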

Each variant is given by its three heavy chain CDRs, as the data file delimits them; those of the parent are GFTLNSYGIS, VIYSDGRRTFYGDSVK, GRAAGTFDS. Variants here have more than six changes. The read-out is the apparent dissociation constant on a log10 scale (nM): the lower, the stronger. A mean of the replicates is given; it leaves out those without a signal. "nd" means that the variant was in the library but no mating with the target was seen in that replicate; the authors take this as a sign of poor binding, and no number exists.

The variant GFDLNEYGIS | VIYADGRRTAYADSVK | GHVAGTFDV [En_Gen] showed -0.78, -0.75, -0.60, -0.87, -1.08, -0.86 (mean -0.82). For GFTLNEYGIS | VIYSDGRRWRYGNSVK | GRAAYTFMT [Rand], the assay gave nd, nd, nd, nd, nd, nd. For GFVIDEYGIS | VIYADGKRQVYQDKVK | GKGTGNFDT [En_Gibbs], the assay gave nd, nd, nd, nd, nd, nd. With GFDLNEYGIS | VIYADGKRTFYADSVK | GEAAGSFDQ [En_HC] the result was 0.39, 0.63, 0.87, 0.90, 0.17, 1.07 (mean 0.67). The variant GFDLNEYGIS | VIYADGKRTFYSDSVK | GEVAGTFDV [En_HC] showed -0.13, -0.41, -0.32, -0.60, -0.48, -0.33 (mean -0.38). The variant GFDLNEYGIS | VIYADGVRTQYTDSVK | GEIAGTFDS [En_HC] showed nd, -0.51, nd, -0.27, 1.32, nd (mean 0.18). The variant GFDLNEYGIS | VIYADGSRTAYTDSVK | GQNAGTFDV [En_Gen] gave nd, nd, nd, nd, nd, nd. With GFDLESYGIS | VIYADGRRTFYADSVK | GVNAGTFDI [En_HC] the result was 0.01, -0.18, -0.19, -0.29, -0.63, -0.27 (mean -0.26).

The variant GFDLDEYGIS | VIYADGRRTAYVDSVK | GNVAGTFDL [En_Gen] showed -0.29, -0.30, -0.81, -0.82, 0.65, -0.09 (mean -0.28). The variant GFDLNEYGIS | VIYADGRRTAYTDSVK | GNVAGTFDL [En_Gen] showed -0.27, 0.05, -0.14, -0.42, -0.29, 0.01 (mean -0.18). The variant GFDLNEYGIS | VIYADGKRTAYSDSVK | GENAGTFDV [En_Gen] gave 0.24, 0.34, 0.46, 0.06, 0.10, 0.36 (mean 0.26). The variant GFDLDEYGIS | VIYADGMRTFYADSVK | GQNAGTFDQ [En_HC] showed 0.25, 0.20, 0.03, -0.14, 0.06, 0.13 (mean 0.09). For GFSIDEYGIS | VIYADGNRSAYIDAVK | GNYGSDFNE [En_Gibbs], the assay gave nd, nd, nd, nd, nd, nd. With GFDLNEYGIS | VIYADGVRTFYSDSVK | GEVAGTFVS [En_HC] the result was -0.32, -0.25, -0.43, -0.60, -0.43, -0.35 (mean -0.40). For GFNLNEYGIS | VIYADGRRTFYSDSVK | GENGGTFDV [En_HC], the assay gave -0.55, 0.46, -0.52, -0.20, 0.53, 0.66 (mean 0.06). The variant GFDLNEYGIS | VIYADGRRTFYSDSVK | GETAGTFVS [En_HC] showed 0.06, -0.09, -0.37, -0.52, -0.69, -0.38 (mean -0.33).

For GFDLEEYGIS | VIYADGRRTAYTANVK | GGKSGDFFM [En_Gibbs], the assay gave nd, nd, nd, nd, nd, nd. The variant GFDLEDYGIS | VIYADGRRTAYIDSVK | GEAAGTFDK [En_HC] showed -0.18, -0.58, -0.22, -0.63, -0.26, -0.33 (mean -0.37). With GFDLMEYGIS | VIYADGMRQYYANKFK | GGISDSGLI [En_Gibbs] the result was 0.19, -0.18, -0.50, -0.04, 0.12, 0.87 (mean 0.08). With GFDLNEYGIS | VIYADGKRTFYSDSVK | GNHAGTFDV [En_HC] the result was -0.21, -0.11, -0.57, -0.98, -0.40, -0.24 (mean -0.42). For GFDLNEYGIS | VIYADGRRTFYSDSVK | GENAGFFDI [En_HC], the assay gave nd, nd, nd, nd, nd, nd. The variant GDKLEDYGIS | VIYADGRRSYYVENVK | GEYAGYFDV [En_Gibbs] gave nd, nd, nd, nd, nd, 3.22. The variant GFDLNEYGIS | VIYADGMRTAYADDVK | GNIAGTFDV [En_Gen] showed -0.05, -0.55, -0.26, -0.46, -0.58, -0.36 (mean -0.38). For GFDLNEYGIS | VIYADGSRTAYADSVK | GNNAGTFDM [En_Gen], the assay gave 0.04, -0.18, 0.29, -0.19, -0.11, 0.32 (mean 0.03).

The variant GFDVDEYGIS | VIYADGHRKSYAASVK | GSVVGVDLV [En_Gibbs] showed nd, nd, nd, nd, nd, nd. The variant GFDLNEYGIS | VIYADGMRTVYTDSVK | GQNAGTFDV [En_Gen] showed -0.30, -0.62, -0.40, -0.84, -0.90, -0.53 (mean -0.60). For GFDLNEYGIS | VIYADGRRTFYADSVK | GENAGTFDI [En_Gen], the assay gave -0.23, -0.27, -0.45, -0.51, -0.34, -0.25 (mean -0.34). The variant GFDLEDYGIS | VIYADGMRTFYADSVK | GNVAGTFDS [En_HC] showed -0.24, -0.23, -0.41, -0.22, -0.43, -0.39 (mean -0.32). For GFDLKQYGIS | VIYADGMRAGYADNVK | GEWGGKFLV [En_Gibbs], the assay gave nd, nd, nd, nd, nd, nd. With GFDLNEYGIS | VIYADGRRTFYIDSVK | GENAGTFDI [En_HC] the result was -0.20, -0.27, -0.50, -0.59, -0.55, -0.31 (mean -0.40). The variant GFTLSEYGIS | VIYADGVRVEYTQSVK | GQLGGSFLV [En_Gibbs] gave nd, nd, nd, nd, nd, nd. The variant GEDMQEYGIS | VIYADGLRAAYSDNFK | GHLGGTFDM [En_Gibbs] gave 0.76, 0.60, 1.17, 0.34, 0.66, 1.02 (mean 0.76).

For GFDLNEYGIS | VIYADGMRTVYADSVK | GENAGTFDQ [En_Gen], the assay gave -0.25, -0.02, -0.56, -0.39, -0.55, -0.30 (mean -0.35). The variant GFDLNEYGIS | VIYADGRRTFYADSVK | GNYAGTFFV [En_HC] gave -0.09, -0.46, -0.42, 0.16, -0.08, 0.07 (mean -0.14). For GFDLDEYGIS | VIYADGRRTFYADSVK | GEIAGTFLV [En_HC], the assay gave -0.53, -0.31, -0.30, -0.38, -0.38, -0.22 (mean -0.35). The variant EFDLQEFGIS | VIYADGKREAYKDDFK | GQVAGTFDL [En_Gibbs] gave 2.06, 0.44, 0.31, 0.46, 1.16, 0.91 (mean 0.89). For GFDLDEYGIS | VIYADGQRTAYADDVK | GEVAGTFDL [En_Gen], the assay gave -0.19, -0.10, 0.04, -0.38, -0.03, -0.06 (mean -0.12). The variant GKSLDEYGIS | VIYADGKRTAYADSVK | NSVMSGRVT [En_Gibbs] gave nd, nd, nd, nd, nd, nd. For GFGLDEYGIS | VIYADGVRRSYVDNVK | GFDGEKGIV [En_Gibbs], the assay gave nd, nd, nd, nd, nd, nd. With GFDLNEYGIS | VIYADGMRTAYSDKVK | GNQAGTFDV [En_Gen] the result was -0.57, -0.33, -0.46, -0.70, -0.17, -0.32 (mean -0.43).

The variant GFDLDEYGIS | VIYADGKRKAYADSVK | GNVAGTFDL [En_Gen] showed -0.44, -0.66, -0.74, -0.78, -0.56, -0.53 (mean -0.62). The variant GFDLNEYGIS | VIYADGMRKAYADNVK | GENAGTFDV [En_Gen] showed -0.97, -0.93, -0.74, -1.01, -0.84, -0.66 (mean -0.86). For GFDISEYGIS | VIYADGMRSALINSVK | GTLSGTFIA [En_Gibbs], the assay gave nd, 2.01, nd, nd, nd, nd. With GADIQEYGIS | VIYADGIRTAYAQNVK | GEYGSQFDI [En_Gibbs] the result was nd, nd, nd, nd, nd, nd. The variant GFDLNEYGIS | VIYADGRRTFYADSVK | GQLAGTFDK [En_HC] gave -0.51, -0.67, -0.84, -0.67, -0.66, -0.25 (mean -0.60). The variant GFDLNEYGIS | VIYADGMRKAYADSVK | GTNAGTFDV [En_Gen] gave -0.20, -0.20, -0.35, -0.21, -0.37, -0.28 (mean -0.27). The variant GFQIDEYGIS | VIYADGLRAAYSQDVK | GMDTGDFMD [En_Gibbs] gave nd, nd, nd, nd, nd, nd. The variant GFGLGEYGIS | VIYADGMRAAYVTSVK | GSIAGTFFT [En_Gibbs] showed 0.74, -0.22, -0.29, 0.07, nd, 0.05 (mean 0.07).

The variant GFDLNEYGIS | VIYADGVRTSYADSVK | GQNAGTFDQ [En_HC] showed -0.05, -0.11, -0.55, -0.95, -0.59, -0.40 (mean -0.44). For GFTLDEYGIS | VIYADGRRTAYSDSVK | GSTAGTFDV [En_HC], the assay gave -0.40, 0.02, 0.03, -0.47, -0.29, -0.41 (mean -0.26).

The 5 strongest on average among those seen in every replicate, once more:

Variant GFDLNEYGIS | VIYADGMRKAYADNVK | GENAGTFDV [En_Gen] showed -0.97, -0.93, -0.74, -1.01, -0.84, -0.66 (mean -0.86).
Variant GFDLNEYGIS | VIYADGRRTAYADSVK | GHVAGTFDV [En_Gen] showed -0.78, -0.75, -0.60, -0.87, -1.08, -0.86 (mean -0.82).
Variant GFDLDEYGIS | VIYADGKRKAYADSVK | GNVAGTFDL [En_Gen] showed -0.44, -0.66, -0.74, -0.78, -0.56, -0.53 (mean -0.62).
Variant GFDLNEYGIS | VIYADGRRTFYADSVK | GQLAGTFDK [En_HC] showed -0.51, -0.67, -0.84, -0.67, -0.66, -0.25 (mean -0.60).
Variant GFDLNEYGIS | VIYADGMRTVYTDSVK | GQNAGTFDV [En_Gen] showed -0.30, -0.62, -0.40, -0.84, -0.90, -0.53 (mean -0.60).

The parent sequence was in this pool as ten entries: three were never detected, three once, and four in most replicates, with averages from 0.34 to 2.37. The authors averaged sequences with at least three values out of six and counted those with two or fewer as poor binders. Background: pairings of all heavy chain designs with three empty control strains gave a value in 1% of cases (median 2.08, 5th percentile 0.84). Values in that range, when seen in few replicates, are hard to tell from nonspecific mating. A sequence measured in both rounds can read differently, since the two assays cover different ranges.

Data: MIT Lincoln Laboratory AlphaSeq set, Li et al. 2023, doi:10.1038/s41467-023-39022-2, as distributed in FLAb.